Source: ChEMBL document CHEMBL2331532, “(+)-Laburnamine, a natural selective ligand and partial agonist for the α4β2 nicotinic receptor subtype” (J Nat Prod, 2013)

Amino acid sequences for entries named in this document (tags omitted). Residues count along the entry.
UniProt P36544, 23-502 limits assumed: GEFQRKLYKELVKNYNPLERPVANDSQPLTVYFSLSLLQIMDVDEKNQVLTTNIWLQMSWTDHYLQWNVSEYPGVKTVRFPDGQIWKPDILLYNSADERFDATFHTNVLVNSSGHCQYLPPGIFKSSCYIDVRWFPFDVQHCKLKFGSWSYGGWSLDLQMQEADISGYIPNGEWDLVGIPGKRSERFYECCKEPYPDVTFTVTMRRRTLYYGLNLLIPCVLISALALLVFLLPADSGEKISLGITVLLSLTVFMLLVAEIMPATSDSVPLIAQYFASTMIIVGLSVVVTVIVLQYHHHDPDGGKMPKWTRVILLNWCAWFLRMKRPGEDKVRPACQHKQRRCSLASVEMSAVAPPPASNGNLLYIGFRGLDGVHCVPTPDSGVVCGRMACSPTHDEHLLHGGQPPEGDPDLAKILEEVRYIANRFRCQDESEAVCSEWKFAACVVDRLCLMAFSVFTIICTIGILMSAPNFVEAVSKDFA
UniProt P17787, 26-502 limits assumed: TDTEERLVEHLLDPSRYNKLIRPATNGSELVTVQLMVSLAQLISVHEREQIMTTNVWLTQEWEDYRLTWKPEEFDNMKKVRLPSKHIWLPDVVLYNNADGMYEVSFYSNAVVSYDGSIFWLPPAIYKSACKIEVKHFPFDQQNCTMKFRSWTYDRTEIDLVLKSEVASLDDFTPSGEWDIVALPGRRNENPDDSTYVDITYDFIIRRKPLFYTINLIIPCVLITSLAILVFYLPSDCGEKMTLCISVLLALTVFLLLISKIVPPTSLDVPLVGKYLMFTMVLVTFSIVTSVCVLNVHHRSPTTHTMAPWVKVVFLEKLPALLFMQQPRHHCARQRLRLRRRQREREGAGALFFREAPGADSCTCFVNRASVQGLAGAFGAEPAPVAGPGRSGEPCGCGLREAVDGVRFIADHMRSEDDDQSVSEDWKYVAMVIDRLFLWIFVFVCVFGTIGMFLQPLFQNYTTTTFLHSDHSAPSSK
UniProt P43681, 27-627 limits assumed: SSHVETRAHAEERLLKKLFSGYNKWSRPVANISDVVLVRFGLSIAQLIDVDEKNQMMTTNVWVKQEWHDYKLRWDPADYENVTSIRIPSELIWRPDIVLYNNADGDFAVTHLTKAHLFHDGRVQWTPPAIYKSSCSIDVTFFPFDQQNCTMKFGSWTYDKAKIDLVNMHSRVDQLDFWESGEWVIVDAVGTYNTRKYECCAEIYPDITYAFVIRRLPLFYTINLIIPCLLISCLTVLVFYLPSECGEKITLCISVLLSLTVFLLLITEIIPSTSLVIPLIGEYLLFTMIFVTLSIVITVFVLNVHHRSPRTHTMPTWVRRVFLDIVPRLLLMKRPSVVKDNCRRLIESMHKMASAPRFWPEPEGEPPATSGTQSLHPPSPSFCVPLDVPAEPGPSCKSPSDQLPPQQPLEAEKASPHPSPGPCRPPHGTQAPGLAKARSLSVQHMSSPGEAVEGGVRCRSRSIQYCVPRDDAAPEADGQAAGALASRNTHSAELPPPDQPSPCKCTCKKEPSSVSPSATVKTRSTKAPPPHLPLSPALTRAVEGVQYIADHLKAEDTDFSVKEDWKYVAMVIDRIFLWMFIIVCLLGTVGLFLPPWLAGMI

Legend:
[1] = molecular target: Neuronal acetylcholine receptor subunit alpha-7 (Homo sapiens, UniProt P36544); experiment: Displacement of [125I]alpha-bungarotoxin from alpha7 nAChR (unknown origin)
[2] = molecular target: Neuronal acetylcholine receptor; alpha4/beta2 (Homo sapiens, UniProt P17787+P43681)

Question: For CC(=O)C1=CCC[C@@H]2CC[C@H]1N2, which Ki [1] is on record?
Answer: 91 nM

Question: What about the Ki [2] of the same compound?
Answer: 0.34 nM
